Values of other authors in article PMC6186498 (Toxicology, 2018).

Tested on: kidney
Settings: directly administered cysteine conjugates; acute, sub-acute and sub-chronic exposure; ref Birner et al. 1997; Shirai et al. 2012; Vaidya et al. 2003; cited from earlier work

N[C@@H](CSC(Cl)=CCl)C(=O)O [DCVC, S-(1,2-dichlorovinyl)-cysteine]
doses at which most studies reported kidney effects: above 10 mg/kg
